From US4831155A (priority 1984, dated 1989)

Sequences of proteins named here, by UniProt entry; tags and fusion partners are left off. Residues count along the entry.
UniProt O42275, 24-633: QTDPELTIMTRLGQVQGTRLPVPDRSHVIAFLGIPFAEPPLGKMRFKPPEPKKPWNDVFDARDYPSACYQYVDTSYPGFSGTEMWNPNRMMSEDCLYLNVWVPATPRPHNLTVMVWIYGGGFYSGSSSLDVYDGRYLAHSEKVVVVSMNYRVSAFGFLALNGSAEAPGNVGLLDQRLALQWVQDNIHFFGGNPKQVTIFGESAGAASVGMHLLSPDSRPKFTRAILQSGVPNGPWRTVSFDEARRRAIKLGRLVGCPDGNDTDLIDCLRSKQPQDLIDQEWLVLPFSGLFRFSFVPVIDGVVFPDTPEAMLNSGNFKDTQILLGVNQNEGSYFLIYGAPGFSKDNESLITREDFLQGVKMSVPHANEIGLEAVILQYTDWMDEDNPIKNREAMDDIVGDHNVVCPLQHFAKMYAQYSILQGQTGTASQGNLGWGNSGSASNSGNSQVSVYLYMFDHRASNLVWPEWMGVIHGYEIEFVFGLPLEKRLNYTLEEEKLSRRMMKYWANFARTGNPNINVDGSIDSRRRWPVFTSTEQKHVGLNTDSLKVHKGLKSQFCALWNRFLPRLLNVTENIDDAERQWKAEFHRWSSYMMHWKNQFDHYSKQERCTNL

Legend:
[1] = tested on: acetylcholinesterase (AchE); test: acetylcholinesterase (AChE) inhibition in the brain and serum after i.p. administration; format: in vivo, rats; details: n=4; for AChE inhibition, brain (M ± SE): Table I, 10 min, salicylate
Method: The acetylcholinesterase (AchE) inhibition in the brain and serum was tested for the heptyl derivative in comparison with physostigmine. Both physostigmine and heptyl derivative were used in form of salycilate and dissolved in distilled water with carbossimethyl cellulose sodium salt at 2%.
Acetylcholinesterase (AChE) inhibition in the brain
and serum 10 min. after i.p. administration of different
doses of physostigmine and heptyl to rats
Acetylcholinesterase (AChE) inhibition in the brain and in serum after
i.p. administration of equiactive doses of
physostigmine and heptyl, at various time intervals (10-60-120 min.)

[2] = target: T1, acetylcholinesterase originating from "Electrophorus electricus" (Electrophorus electricus, UniProt O42275); test: biochemical
[3] = target: T1, acetylcholinesterase originating from "Electrophorus electricus"; details: read-out: I50 × 10^6

CNC(=O)Oc1ccc2c(c1)[C@]1(C)CCN(C)[C@@H]1N2C [Eserine]
AChE inhibition, brain (M ± SE) ([1]; 0.10 mg/kg i.p.): 19.58 ± 11.43%
AChE inhibition, brain (M ± SE) ([1]; 0.20 mg/kg i.p.): 53.70 ± 8.30%
% AChE Inhibition, brain, 10 minutes (M ± SE) ([1]; Table II, i.p. equiactive doses: Phys. 0.2, Hept. 1.0 mg/Kg): 53.70 ± 8.30%
Ki [2]: 20 nM
IC50 [3]: 200 nM
